Laboratory results reported in publication PMC5109486, “Computational Drug Target Screening through Protein Interaction Profiles” (Scientific Reports, 2016).

By UniProt entry, the sequences of proteins in these tests, tags left out.
UniProt P21397, whole entry: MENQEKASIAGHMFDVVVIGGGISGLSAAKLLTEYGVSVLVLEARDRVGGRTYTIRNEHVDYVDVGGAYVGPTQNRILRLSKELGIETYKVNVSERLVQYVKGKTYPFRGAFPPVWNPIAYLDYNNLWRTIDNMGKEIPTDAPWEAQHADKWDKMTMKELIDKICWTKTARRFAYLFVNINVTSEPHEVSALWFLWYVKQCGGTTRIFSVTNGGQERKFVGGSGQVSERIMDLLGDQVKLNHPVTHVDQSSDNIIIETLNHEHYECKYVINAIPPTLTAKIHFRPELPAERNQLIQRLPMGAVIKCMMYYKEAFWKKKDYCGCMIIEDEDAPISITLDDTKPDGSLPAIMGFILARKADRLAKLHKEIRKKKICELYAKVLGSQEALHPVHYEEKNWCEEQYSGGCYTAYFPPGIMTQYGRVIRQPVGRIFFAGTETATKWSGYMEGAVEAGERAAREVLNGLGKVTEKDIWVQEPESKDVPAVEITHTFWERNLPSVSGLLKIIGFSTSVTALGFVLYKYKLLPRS

Molecular target: T1, hMAO-A (Homo sapiens, UniProt P21397)
T1 construct: purchased Sigma-Aldrich; host or cells: insect cells (BTI-TN-5B1-4) infected with recombinant baculovirus; microsomal preparation
Experiment: hMAO-A enzymatic inhibition, Amplex Red MAO assay (H2O2 from p-tyramine)
Assay type: biochemical
Details: Table 2; mean ± S.E.M., n = 3; control assays

IC50: 6.56 ± 0.76 µM
Compound: CC(C)NNC(=O)c1ccncc1 [Iproniazide]
